Source: patent publication US4906655A, “Novel 1,2-cyclohexylaminoaryl amides useful as analgesic agents” (dated 1990)

Test system: rat
Assay: rat paw pressure test (analgesia)
Details: dose required to produce 50% of the maximum possible analgesic effect, single experiment, six animals per dose level

In the case of `CN(C(=O)Cc1cccc2c1CCO2)[C@H]1CC[C@@]2(CCCO2)C[C@@H]1N1CCCC1` (single isomer, unassigned), the “Rat Paw Pressure MPE50 IV” value is reported as 0.71 mg/kg.

`CN(C(=O)Cc1cccc2c1COC2=O)[C@H]1CC[C@@]2(CCCO2)C[C@@H]1N1CCCC1` (single isomer, unassigned) was tested, and the “Rat Paw Pressure MPE50 IV” value was 0.1 mg/kg.
